Laboratory results taken from ChEMBL document CHEMBL1955798, “Novel coumarins and 2-thioxo-coumarins as inhibitors of the tumor-associated carbonic anhydrases IX and XII” (Bioorg Med Chem, 2012).

How the values were obtained:
[1] = biological target: Carbonic anhydrase 12 (Homo sapiens, UniProt O43570); experiment: Inhibition of human carbonic anhydrase 12 after 6 hrs by stop-flow CO2 hydration assay
[2] = biological target: Carbonic anhydrase 9 (Homo sapiens, UniProt Q16790); experiment: Inhibition of human carbonic anhydrase 9 after 6 hrs by stop-flow CO2 hydration assay

For O=c1ccc2ccccc2o1 [COUMARIN], the Ki [1] was > 200 µM and the Ki [2] was > 200 µM.
